Earlier results as cited in publication PMC6396197, “Oligomannose Glycopeptide Conjugates Elicit Antibodies Targeting the Glycan Core Rather than Its Extremities” (ACS Central Science, 2019).

System: mice
Settings: in vivo; cited from earlier work

## Rituximab
  half-life of truncation of Man9GlcNAc2 to Man5/6: ~6 h
  time to nearly complete conversion to Man5/6: ≤ 2 days
